Molecular target: ERα (Homo sapiens (Human), UniProt P03372)
Test: Degradation effect of compound on ERα (ERα DuoSet IC ELISA in MCF-7 cells)
Type: cell-based
Conditions: read-out: IC50 value of ERα degradation by compound
Description: In this test example, ERα DuoSet IC ELISA Kit (R&D, DYC5715) was used to detect the degradation effect of the compound on ERα. On the first day of the experiment, human breast cancer cells MCF-7 (the source was as above) were inoculated into a 24-well plate. The culture medium was an MEM culture medium containing 10% of activated-carbon-treated FBS (Tocyto, UT61204), 1% of pyruvic acid and 1% of nonessential amino acid. The inoculation density was 150,000 cells/well. The cells were cultured at 37° C., 5% CO2 for 24 h.
On the second day of the experiment, the compound to be tested was diluted in gradient and added to a 24-well plate containing cells. The cells were cultured for 24 h at 37° C., 5% CO2. ERα capture antibody was diluted to 1 μg/ml with PBS (Corning, 21-040-CVR) and added to a 96-well plate at 100 μL/well, and the plate was […] coated overnight at room temperature.
On the third day of the experiment, the coated 96-well plate was washed three times with PBS, 300 μL of a blocking solution (R&D, DY995) was added to each well, and the plate was blocked at room temperature for 1 h. The 24-well plate was washed once with PBS, and the residual liquid was sucked off. […] After 15 minutes of development, the reaction was terminated with a stop solution (R&D, DY994), and the light absorption at 450 nm was read.

The chains behind the UniProt entries cited, without tags or fusion partners.
UniProt P03372, whole entry: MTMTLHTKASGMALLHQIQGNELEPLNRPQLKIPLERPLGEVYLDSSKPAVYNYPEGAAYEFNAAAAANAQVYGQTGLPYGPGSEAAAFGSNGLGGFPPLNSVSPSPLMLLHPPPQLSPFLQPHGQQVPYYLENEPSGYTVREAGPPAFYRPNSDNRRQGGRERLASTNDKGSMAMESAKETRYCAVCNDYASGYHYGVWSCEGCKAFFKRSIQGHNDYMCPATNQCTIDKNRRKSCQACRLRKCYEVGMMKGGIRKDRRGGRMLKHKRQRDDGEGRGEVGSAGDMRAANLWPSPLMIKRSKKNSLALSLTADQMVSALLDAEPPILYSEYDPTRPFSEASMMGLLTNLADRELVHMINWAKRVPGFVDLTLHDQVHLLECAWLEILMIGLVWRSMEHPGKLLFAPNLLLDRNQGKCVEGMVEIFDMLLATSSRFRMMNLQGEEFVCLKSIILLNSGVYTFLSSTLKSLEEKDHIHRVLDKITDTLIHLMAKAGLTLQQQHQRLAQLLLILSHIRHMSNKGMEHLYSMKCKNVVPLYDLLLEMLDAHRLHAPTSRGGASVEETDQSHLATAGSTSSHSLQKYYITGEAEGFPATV

## C[C@@H]1Cc2c([nH]c3ccccc23)[C@@H](c2c(F)cc(/C=C/C(=O)O)cc2F)N1CC(C)(C)F [AZD9496, reference compound]
  DC50: 1.38 nM

Reference: patent US20240217988A1, “ESTROGEN RECEPTOR ANTAGONIST” (Shenzhen Forward Pharmaceuticals Co., Limited, priority 2021, published 2024)
